Earlier results on one compound are cited in patent publication US20010046684A1, “Methods of structure-based drug design using MS/MNR” (priority 2000, published 2001).

What is called IC50 is the point on the concentration scale where inhibition reaches its midpoint.

Each structure is given as a SMILES string.

This data set concerns the target T1, MMP-1 (Homo sapiens, UniProt P03956).
T1 sequence (P03956 100-469): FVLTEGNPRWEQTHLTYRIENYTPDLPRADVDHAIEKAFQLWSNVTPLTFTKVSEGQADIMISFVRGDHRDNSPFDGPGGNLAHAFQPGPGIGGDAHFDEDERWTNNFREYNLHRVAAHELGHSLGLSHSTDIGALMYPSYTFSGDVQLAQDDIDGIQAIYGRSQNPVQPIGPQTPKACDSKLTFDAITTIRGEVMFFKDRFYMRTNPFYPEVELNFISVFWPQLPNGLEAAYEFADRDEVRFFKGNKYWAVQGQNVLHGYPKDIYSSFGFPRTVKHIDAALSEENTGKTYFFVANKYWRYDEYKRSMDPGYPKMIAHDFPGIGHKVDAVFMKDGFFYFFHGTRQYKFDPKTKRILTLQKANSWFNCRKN
The following applies: Inhibitors of MMP-1; compounds having known affinities, previously tested; cited from earlier work.

Consider `COc1ccc(S(=O)(=O)N(Cc2cccnc2)[C@@H](C(=O)NO)C(C)C)cc1` [Compound 1, N2-(4-Methoxy-benzenesulfonyl)-N2-[(pyridin-3-yl)methyl]-N-hydroxy-D-valinamide], for which the IC50 was 9 nM.
